Hits are enriched below; roughly 2.1% of the tested compounds scored in any of these assays.
ERp5 inh: inhibitors of human ERp5 | Q15084 | ERp5 insulin aggregation, absorbance 650 nm, 90 min | inhibition, % at 9.99 µM | actives 0.05% (n = 350,000);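 active = mean replicate inhibition above about 25%, with every replicate also reaching it, limit read from the data, passing the limit was not always enough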
Rev-erbA mod: Rev-erb alpha (human) modulation; activity, % at 10 µM; Rev-erbα–FITC-DNA binding, fluorescence polarization, 90 min; P20393; actives 0.79% (n = 370,000); AID 1259318;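 active = activity above about 14%, limit read from the data; passing the limit was not always enough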
PDI inh: PDI (human) enzyme inhibition | inhibition, % at 10 µM | AID 588391 | PDI insulin aggregation turbidity, A650, 90 min | actives 0.052% (n = 350,000);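 active = mean inhibition across replicates of 30% or more, whatever share of single replicates reach that level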
SMARCA2 activ: increases SMARCA2 function in MMTV reporter cells | actives 1% (n = 370,000) | MG213 cells, MMTV-luciferase reporter, dexamethasone, overnight | AID 652017 | activation, % at 9.1 µM; in the data active = activation above about 7.8%
Yeast UUG start: modulators of yeast start codon fidelity, primary screen, whole organism, S. cerevisiae, single point, plate reader; S. cerevisiae UUG-firefly luciferase reporter, luminescence/redox ratio; activity score, % at 18.7 µM; actives 0.13% (n = 350,000); AID 602363, 2012;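 active = replicate mean at a twofold rise or more, about +100% in these data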;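 also: firefly luciferase made from a UUG start codon reports start codon fidelity; reporter light over untreated wells divided by growth signal over untreated wells; some hits fall short of that in this replicate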
GSIS activator: primary screen for activators of insulin secretion dependent on glucose, INS-1E cells, GLuc reporter luminescence | INS-1E GLuc reporter insulin secretion, 2-3 h | activation, % at 16.6 µM | actives 0.61% (n = 370,000);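 active = lowest replicate activation of at least 40%, so every replicate reaches that level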
SMARCA2 conf: SMARCA2 activation, confirmation screen; actives 30% (n = 3,500); activation, % at 9.1 µM; AID 652260; shares compounds with SMARCA2 activ; MG213 cells, MMTV-luciferase with dexamethasone, luminescence, overnight; MG213 cells expressing E1A, Rb sequestered; DMSO wells 0%, reference activator 100%;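 active = activation above its plate's cutoff, the mean activation of tested wells plus 3 SD, cut at about 7.9% in these data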
VP16 Luc act: activates GAL4-VP16 luciferase, flagging SMARCA2 activator hits; shares compounds with SMARCA2 activ; HEK293 GAL4-VP16 pG5luc reporter, luciferase luminescence; scaled: DMSO wells 0%, SAHA wells 100%; activation, % at 9.1 µM; actives 41% (n = 3,500); AID 686939;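 active = activation above the solvent-only control well mean plus 3 SD, averaged across control plates, cut at about 5.2% in these data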
A number is an active result; - = inactive; . = not tested or not shown.

SMILES	ERp5 inh	Rev-erbA mod	PDI inh	SMARCA2 activ	Yeast UUG start	GSIS activator	SMARCA2 conf	VP16 Luc act
C[C@@H]1CN([C@H](C)CO)C(=O)CCCn2cc(nn2)CO[C@@H]1CN(C)S(=O)(=O)c1ccc2c(c1)OCCCO2	-	.	.	.	-	-	.	.
O=C(Nc1ccc2c(c1)OCO2)c1cc2nc(C3CC3)cc(C(F)(F)F)n2n1	-	-	-	.	-	.	.	.
Cc1cc(C)n2nc(C(=O)Nc3ccc4c(c3)OCO4)cc2n1	.	-	-	11.2	-	-	18.4	9.7
CO[C@H]1CN(C)C(=O)c2cc(NC(=O)c3ccccc3)ccc2OC[C@@H](C)N(C(=O)CN(C)C)C[C@@H]1C	-	.	.	.	-	-	.	.
COCC(=O)N(C)C[C@@H]1Oc2cc(C3=CCCCC3)ccc2S(=O)(=O)N([C@H](C)CO)C[C@@H]1C	-	.	.	.	-	-	.	.
c1cncc(-c2csc(-c3cccnc3)n2)c1	-	-	-	-	-	-	.	.
Oc1ccc(-c2csc(-c3cccnc3)n2)c(O)c1	-	-	-	8.2	.	-	12.5	11.6
COc1ccc(NC(=O)N(C)C[C@H]2Oc3ccc(NC(=O)Nc4ccccc4)cc3C(=O)N([C@H](C)CO)C[C@@H]2C)cc1	-	.	.	.	-	-	.	.
Cc1[nH]c(C)c(S(=O)(=O)Nc2ccc(F)cc2Cl)c1C(=O)N1CCCC1	-	-	-	9.0	-	-	-	-
Cc1[nH]c(C)c(S(=O)(=O)Nc2ccccc2Cl)c1C(=O)N1CCCC1	-	-	-	-	-	-	.	.
Cc1ccc(CNS(=O)(=O)c2c(C)[nH]c(C)c2C(=O)N2CCCCC2)cc1	-	-	-	-	-	-	.	.
COc1cccc(CNS(=O)(=O)c2c(C)[nH]c(C)c2C(=O)N2CCCCC2)c1	-	-	-	13.4	-	-	-	-
Cn1c(-c2nnn(-c3ccc(F)cc3)n2)cc2ccccc21	-	-	.	8.8	.	-	-	8.4
Cc1ccc(-n2nnc(-c3cc4ccccc4n3C)n2)cc1	-	-	-	-	-	-	.	.
CCCCN1C(=O)C(CC(=O)NCCCN(C)C)CC(C(=O)N(CC)CC)=C1C (stereo not drawn)	-	-	-	-	-	.	.	.
CCCCN1C(=O)C(CC(=O)NCCCN(C)C)CC(C(=O)N(C(C)C)C(C)C)=C1C (stereo not drawn)	-	-	.	12.8	.	-	-	-
CCOc1ccc(NC(=O)NN2C(C)CCCC2C)cc1 (stereo not drawn)	-	-	-	14.7	-	-	-	-
CCOC(=O)c1csc(-c2ccc3c(c2)CCO3)n1	.	-	-	15.6	-	.	-	6.7
COC(=O)c1ccc2nc(-c3cccc(Cl)c3)c(Cc3cccc(Cl)c3)n2c1	-	-	.	-	.	-	.	.
COC(=O)c1ccc2nc(-c3cccc(Cl)c3)c(Cc3cccc(F)c3)n2c1	-	-	.	11.1	.	-	-	-
O=C(C[C@H]1CC[C@H]2[C@@H](COC[C@@H](O)CN2S(=O)(=O)c2ccccc2)O1)NCCN1CCCC1	-	.	.	.	.	-	.	.
COc1ccccc1OCc1nc2ccccc2n1C	-	-	-	10.2	-	-	12.5	7.5
CCCC(=O)c1cc2c(cc1NC(=O)c1cccs1)OCCO2	.	-	-	-	-	.	.	.
O=C(Nc1cc2c(cc1Br)OCCO2)c1cccs1	.	-	-	10.0	-	.	-	9.0
CCOC1=C2[C@@H](CN(S(=O)(=O)c3ccc(C)cc3)[C@H]2c2cccc3ccccc23)[C@H]2C(=O)N(c3ccccc3)C(=O)[C@H]2C1	-	-	.	-	-	-	.	.
CCOC1=C2[C@@H](CN(S(=O)(=O)c3ccc(C)cc3)[C@H]2c2cccc3ccccc23)[C@H]2C(=O)N(C3CCCCC3)C(=O)[C@H]2C1	-	-	.	10.1	-	-	-	-
COc1ccc2c3c(n(C)c2c1)[C@@H](CO)N(C(=O)C1CCCCC1)CC31CCN(C(=O)c2ccncc2)CC1	-	.	.	.	.	-	.	.
O=C(C[C@@H]1CC[C@H](NC(=O)Nc2ccc3c(c2)OCO3)[C@H](CO)O1)NCc1ccc(F)cc1	-	.	.	.	-	-	.	.
